OPERA 2.9 data: water solubility values

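The numbers are reported measurements, compiled and curated for the OPERA QSAR suite. The files give a single number for a compound and property, which may rest on several reports. Method, purity and exact conditions of the single measurements are not given. Where a salt, mixture or single isomer is drawn, the source does not say that exactly this form was tested. Some upstream entries may be estimates or bounds without being marked so.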

Water solubility is log10 of mol/L, nominally at 25 °C; higher is more soluble.

SMILES,log solubility (log10 mol/L)
O=C(Cc1ccc(-c2ccccc2)cc1)OCC1CCCCC1,-7.79
CC(C)C(=O)C(C(O)=Nc1ccccc1)C(C(=O)c1ccc(F)cc1)c1ccccc1 (stereo unspecified),-6.381
OC[C@@H](O)[C@@H](O[C@@H]1O[C@H](CO)[C@H](O)[C@H](O)[C@H]1O)[C@H](O)[C@@H](O)CO,0.287
CCOC(=O)[C@@H](N)Cc1cc(I)c(Oc2cc(I)c(O)c(I)c2)c(I)c1,-4.6
NNC(=O)c1ccc([N+](=O)[O-])s1,-1.971
OC(Cn1ccnc1)c1ccc(Cl)cc1Cl (stereo unspecified),-3.38
CC(C)OCC1CO1 (stereo unspecified),0.214
NC(=O)NC(=O)Cc1ccccc1,-2.226
c1ccc2c(c1)CC1COCOC21 (stereo unspecified),-1.656
CCOC(=O)CNC(=O)C(C(C)C)N(C(C)=O)c1cccc(C(F)(F)F)c1 (stereo unspecified),-3.175
O=c1[nH]c2cc(/N=C/c3c([O-])ccc4ccccc34)c(/N=C/c3c([O-])ccc4ccccc34)cc2[nH]1.[Ni+2],-7.627
Nc1ccc2cc(S(=O)(=O)O)cc(O)c2c1,-2.883
N#Cc1ccccc1-c1ccc(CBr)cc1,-6.657
Cc1nc[nH]c1CN1CCc2c(c3ccccc3n2C)C1=O,-2.827
O=C(CCCN1CCC(O)(c2ccc(F)cc2)CC1)c1ccc(F)cc1,-4.175
CCC=C1OC(=O)c2ccccc21,-2.204
C=CC(=O)OCCCCOC(=O)Oc1ccc2cc(C(=O)Oc3ccc(OC(=O)c4ccc5cc(OC(=O)OCCCCOC(=O)C=C)ccc5c4)c(C(=O)OC)c3)ccc2c1,-6.23
CCCCCCC(O)CCCCCCCCCCC(=O)OC (stereo unspecified),-3.907
CCOc1ccc(Cc2cc([C@@H]3O[C@H](COC(C)=O)[C@@H](OC(C)=O)[C@H](OC(C)=O)[C@H]3OC(C)=O)ccc2Cl)cc1,-7.712
CC(=O)c1ccc(S(=O)(=O)NC(=O)NC2CCCCC2)cc1,-2.06
CCNC(=S)OC(C)C,-1.745
O=C(Nc1ccc(NC(=O)c2cc3ccccc3c(N=Nc3ccc(Cl)cc3[N+](=O)[O-])c2O)c(Cl)c1)c1cc2ccccc2c(N=Nc2ccc(Cl)cc2[N+](=O)[O-])c1O,-7.628
Cl.Cl.NCCCNc1ccc2c3c(c4c(c(O)c13)C(=O)C=CC4=O)NN2CCNCCO,-2.834
O[C@@H]1[C@H](O)[C@@H]2OC[C@@H](O2)[C@@H]1O,-0.415
COc1ccc(N2CCN(c3ccc([N+](=O)[O-])cc3)CC2)cc1,-6.929
CCN(CC)c1ccc2c(c1)Oc1cc(N(CC)CC)ccc1C21OC(=O)c2ccccc21,-1.962
CCOC(=O)NCC(C)C,-0.768
CCCCCCCCCCCCCCCCCCCCCC(=O)OCCCCCCCCCCCCCCCCCC,-8.072
CCOC(=O)CCC(=O)C(CO)(N=C(C)O)C(=O)OCc1ccccc1 (stereo unspecified),-3.851
O=C1c2ccccc2-c2ccc3c4c(ccc1c24)-c1c(Br)ccc(Br)c1C3=O,-5.275
Cc1c(NC(=O)NCc2cccc(CNC(=O)Nc3cccc(NC(=O)OCCCCCCCCCCC(C)C)c3C)c2)cccc1NC(=O)OCCCCCCCCCCC(C)C,-5.973
CN(CCO)S(=O)(=O)C(F)(F)C(F)(F)C(F)(F)C(F)(F)C(F)(F)C(F)(F)C(F)(F)C(F)(F)F,-5.834
NC(=O)N=C[C@H](O)[C@@H](O)[C@H](O)[C@H](O)CO,0.197
O=C(O)c1ccc([N+](=O)[O-])cc1,-2.86
Cc1ccc(N2C(=O)c3cccc4c(N)ccc(c34)C2=O)c(C)c1,-4.892
C[C@H](NC(=N)N)C(=O)O,-0.199
COc1cc2c(cc1OC)CC(=O)N(CCC1OCCO1)C=C2,-3.051
O=C(O)c1cc([N+](=O)[O-])ccc1O,-2.37
CCCCCCCCCCCC(=O)N(C)CC(=O)O,-2.735
CNC(=O)N(c1ccccc1)c1ccccc1,-2.669
CS(=O)(=O)Oc1ccc(Nc2ccc(O)c3c2C(=O)c2ccccc2C3=O)cc1,-6.214
CS(=O)(=O)c1ccc(CNc2ncccc2Br)c(C(F)(F)F)c1,-6.767
CC(=O)OCC1=C(C(=O)O)N2C(=O)[C@@H](NC(=O)CSc3ccncc3)[C@H]2SC1,-2.611
NC(C(=O)O)[C@H](N)C(=O)O (some centres undefined),-2.38
CCCCCCOC(=O)CC(CC(=O)OCCCCCC)(OC(=O)CCC)C(=O)OCCCCCC,-5.926
CCCCCC(C)(CC)C(=O)[O-].CCCCCC(C)(CC)C(=O)[O-].[Fe+2] (stereo unspecified),-7.396

Repeated from above, the 7 entries with the highest log solubility:

| SMILES | log solubility (log10 mol/L) |
|---|---|
| OC[C@@H](O)[C@@H](O[C@@H]1O[C@H](CO)[C@H](O)[C@H](O)[C@H]1O)[C@H](O)[C@@H](O)CO | 0.287 |
| CC(C)OCC1CO1 (stereo unspecified) | 0.214 |
| NC(=O)N=C[C@H](O)[C@@H](O)[C@H](O)[C@H](O)CO | 0.197 |
| C[C@H](NC(=N)N)C(=O)O | -0.199 |
| O[C@@H]1[C@H](O)[C@@H]2OC[C@@H](O2)[C@@H]1O | -0.415 |
| CCOC(=O)NCC(C)C | -0.768 |
| c1ccc2c(c1)CC1COCOC21 (stereo unspecified) | -1.656 |

From the experimental data distributed with OPERA 2.9.